Reference: PubChem BioAssay (NCI)
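Exposure lasted 48 hours, with cells grown in 96-well plates and compounds tested at five concentrations. The concentration for 50% growth inhibition is given as GI50. TGI denotes the concentration required for complete inhibition of growth.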

Key:
Assay in all cases: DTP human tumour cell line panel, 48 h
HCT-15 colon = test system: HCT-15 colon
T-47D breast = test system: T-47D breast
SF-295 CNS = test system: SF-295 CNS
MDA-MB-231 breast = test system: MDA-MB-231 breast
EKVX NSCLC = test system: EKVX NSCLC
IGROV1 ovarian = test system: IGROV1 ovarian
UO-31 renal = test system: UO-31 renal
ACHN renal = test system: ACHN renal
SK-OV-3 ovarian = test system: SK-OV-3 ovarian
HT29 colon = test system: HT29 colon
K-562 leukemia = test system: K-562 leukemia
OVCAR-4 ovarian = test system: OVCAR-4 ovarian
NCI-H322M lung = test system: NCI-H322M lung
HOP-92 NSCLC = test system: HOP-92 NSCLC
HOP-62 NSCLC = test system: HOP-62 NSCLC
SN12C renal = test system: SN12C renal
NCI-H522 lung = test system: NCI-H522 lung
SNB-19 CNS = test system: SNB-19 CNS
SR leukemia = test system: SR leukemia
SF-268 CNS = test system: SF-268 CNS
HS 578T breast = test system: HS 578T breast
NCI-H460 lung = test system: NCI-H460 lung
RPMI-8226 leukemia = test system: RPMI-8226 leukemia
NCI-H226 lung = test system: NCI-H226 lung
RXF 393 renal = test system: RXF 393 renal
SK-MEL-2 melanoma = test system: SK-MEL-2 melanoma
SK-MEL-28 melanoma = test system: SK-MEL-28 melanoma
UACC-62 melanoma = test system: UACC-62 melanoma
SW-620 colon = test system: SW-620 colon
MALME-3M melanoma = test system: MALME-3M melanoma
NCI-H23 lung = test system: NCI-H23 lung
KM12 colon = test system: KM12 colon
SK-MEL-5 melanoma = test system: SK-MEL-5 melanoma
MOLT-4 leukemia = test system: MOLT-4 leukemia
COLO 205 colon = test system: COLO 205 colon
UACC-257 melanoma = test system: UACC-257 melanoma
A498 renal = test system: A498 renal
U251 CNS = test system: U251 CNS
786-0 renal = test system: 786-0 renal
MDA-MB-435 = test system: MDA-MB-435
TK-10 renal = test system: TK-10 renal
OVCAR-5 ovarian = test system: OVCAR-5 ovarian
HCC-2998 colon = test system: HCC-2998 colon
OVCAR-8 ovarian = test system: OVCAR-8 ovarian
DU-145 prostate = test system: DU-145 prostate
SNB-75 CNS = test system: SNB-75 CNS
NCI/ADR-RES ovarian = test system: NCI/ADR-RES ovarian
PC-3 prostate = test system: PC-3 prostate
BT-549 breast = test system: BT-549 breast
OVCAR-3 ovarian = test system: OVCAR-3 ovarian
CAKI-1 renal = test system: CAKI-1 renal
A549 NSCLC = test system: A549 NSCLC
HL-60(TB) leukemia = test system: HL-60(TB) leukemia

Question: For `Cc1c([N+](=O)[O-])cc([N+](=O)[O-])c(Br)c1[N+](=O)[O-]`, which GI50 (HCT-15 colon) is on record?
Answer: 1.58 µM

Question: And the TGI (HCT-15 colon)?
Answer: 4.25 µM

Question: What about the GI50 (T-47D breast) of the same molecule?
Answer: 1.74 µM

Question: And the TGI (T-47D breast)?
Answer: 4.59 µM

Question: What about the GI50 (SF-295 CNS) of the same molecule?
Answer: 15.5 µM

Question: And the TGI (SF-295 CNS)?
Answer: 31.1 µM

Question: And the GI50 (MDA-MB-231 breast)?
Answer: 11.4 µM

Question: And the TGI (MDA-MB-231 breast)?
Answer: 26.9 µM

Question: What about the GI50 (EKVX NSCLC) of the same molecule?
Answer: 14.9 µM

Question: What about the TGI (EKVX NSCLC) of the same molecule?
Answer: 31.1 µM

Question: What about the GI50 (IGROV1 ovarian) of the same molecule?
Answer: 1.78 µM

Question: And the TGI (IGROV1 ovarian)?
Answer: 4.22 µM

Question: What about the GI50 (UO-31 renal) of the same molecule?
Answer: 1.46 µM

Question: What about the TGI (UO-31 renal) of the same molecule?
Answer: 3.06 µM

Question: What about the GI50 (ACHN renal) of the same molecule?
Answer: 1.85 µM

Question: And the TGI (ACHN renal)?
Answer: 3.46 µM

Question: What about the GI50 (SK-OV-3 ovarian) of the same molecule?
Answer: 15.2 µM

Question: What about the TGI (SK-OV-3 ovarian) of the same molecule?
Answer: 28.5 µM

Question: And the GI50 (HT29 colon)?
Answer: 1.81 µM

Question: And the TGI (HT29 colon)?
Answer: 3.56 µM

Question: And the GI50 (K-562 leukemia)?
Answer: 1.76 µM

Question: What about the TGI (K-562 leukemia) of the same molecule?
Answer: 7.81 µM

Question: What about the GI50 (OVCAR-4 ovarian) of the same molecule?
Answer: 1.79 µM

Question: And the TGI (OVCAR-4 ovarian)?
Answer: 3.19 µM

Question: And the GI50 (NCI-H322M lung)?
Answer: 16.2 µM

Question: And the TGI (NCI-H322M lung)?
Answer: 33.7 µM

Question: What about the GI50 (HOP-92 NSCLC) of the same molecule?
Answer: 1.66 µM

Question: What about the TGI (HOP-92 NSCLC) of the same molecule?
Answer: 3.13 µM

Question: What about the GI50 (HOP-62 NSCLC) of the same molecule?
Answer: 13.3 µM

Question: And the TGI (HOP-62 NSCLC)?
Answer: 26.1 µM

Question: And the GI50 (SN12C renal)?
Answer: 12.3 µM

Question: And the TGI (SN12C renal)?
Answer: 41.5 µM

Question: What about the GI50 (NCI-H522 lung) of the same molecule?
Answer: 1.52 µM

Question: And the TGI (NCI-H522 lung)?
Answer: 2.86 µM

Question: And the GI50 (SNB-19 CNS)?
Answer: 16.9 µM

Question: What about the TGI (SNB-19 CNS) of the same molecule?
Answer: 33.7 µM

Question: What about the GI50 (SR leukemia) of the same molecule?
Answer: 2.44 µM

Question: What about the TGI (SR leukemia) of the same molecule?
Answer: 7.39 µM

Question: And the GI50 (SF-268 CNS)?
Answer: 14 µM

Question: And the TGI (SF-268 CNS)?
Answer: 27.1 µM

Question: And the GI50 (HS 578T breast)?
Answer: 7.21 µM

Question: What about the TGI (HS 578T breast) of the same molecule?
Answer: 40.5 µM

Question: What about the GI50 (NCI-H460 lung) of the same molecule?
Answer: 19.4 µM

Question: And the TGI (NCI-H460 lung)?
Answer: 52.7 µM

Question: What about the GI50 (RPMI-8226 leukemia) of the same molecule?
Answer: 2.06 µM

Question: What about the TGI (RPMI-8226 leukemia) of the same molecule?
Answer: 6.59 µM

Question: And the GI50 (NCI-H226 lung)?
Answer: 13.4 µM

Question: What about the TGI (NCI-H226 lung) of the same molecule?
Answer: 27.8 µM

Question: And the GI50 (RXF 393 renal)?
Answer: 1.79 µM

Question: And the TGI (RXF 393 renal)?
Answer: 3.19 µM

Question: What about the GI50 (SK-MEL-2 melanoma) of the same molecule?
Answer: 11.9 µM

Question: And the TGI (SK-MEL-2 melanoma)?
Answer: 24.7 µM

Question: And the GI50 (SK-MEL-28 melanoma)?
Answer: 12.3 µM

Question: And the TGI (SK-MEL-28 melanoma)?
Answer: 25.5 µM

Question: And the GI50 (UACC-62 melanoma)?
Answer: 1.79 µM

Question: What about the TGI (UACC-62 melanoma) of the same molecule?
Answer: 3.61 µM

Question: What about the GI50 (SW-620 colon) of the same molecule?
Answer: 1.8 µM

Question: And the TGI (SW-620 colon)?
Answer: 3.57 µM

Question: What about the GI50 (MALME-3M melanoma) of the same molecule?
Answer: 1.74 µM

Question: What about the TGI (MALME-3M melanoma) of the same molecule?
Answer: 3.6 µM

Question: What about the GI50 (NCI-H23 lung) of the same molecule?
Answer: 19 µM

Question: And the TGI (NCI-H23 lung)?
Answer: 48.3 µM

Question: And the GI50 (KM12 colon)?
Answer: 11.8 µM

Question: What about the TGI (KM12 colon) of the same molecule?
Answer: 24.4 µM

Question: What about the GI50 (SK-MEL-5 melanoma) of the same molecule?
Answer: 14.3 µM

Question: What about the TGI (SK-MEL-5 melanoma) of the same molecule?
Answer: 27.6 µM

Question: What about the GI50 (MOLT-4 leukemia) of the same molecule?
Answer: 2.84 µM

Question: And the TGI (MOLT-4 leukemia)?
Answer: 7.6 µM

Question: And the GI50 (COLO 205 colon)?
Answer: 1.6 µM

Question: And the TGI (COLO 205 colon)?
Answer: 3.1 µM

Question: And the GI50 (UACC-257 melanoma)?
Answer: 1.67 µM

Question: And the TGI (UACC-257 melanoma)?
Answer: 3.12 µM

Question: And the GI50 (A498 renal)?
Answer: 14.2 µM

Question: What about the TGI (A498 renal) of the same molecule?
Answer: 27.3 µM

Question: What about the GI50 (U251 CNS) of the same molecule?
Answer: 4.38 µM

Question: What about the TGI (U251 CNS) of the same molecule?
Answer: 18.8 µM

Question: And the GI50 (786-0 renal)?
Answer: 1.8 µM

Question: What about the TGI (786-0 renal) of the same molecule?
Answer: 3.33 µM

Question: What about the GI50 (MDA-MB-435) of the same molecule?
Answer: 2.9 µM

Question: And the TGI (MDA-MB-435)?
Answer: 11.9 µM

Question: What about the GI50 (TK-10 renal) of the same molecule?
Answer: 10.8 µM

Question: And the TGI (TK-10 renal)?
Answer: 23 µM

Question: What about the GI50 (OVCAR-5 ovarian) of the same molecule?
Answer: 5.14 µM

Question: And the TGI (OVCAR-5 ovarian)?
Answer: 24 µM

Question: What about the GI50 (HCC-2998 colon) of the same molecule?
Answer: 17.6 µM

Question: And the TGI (HCC-2998 colon)?
Answer: 33.2 µM

Question: And the GI50 (OVCAR-8 ovarian)?
Answer: 3.06 µM

Question: What about the TGI (OVCAR-8 ovarian) of the same molecule?
Answer: 10.8 µM

Question: What about the GI50 (DU-145 prostate) of the same molecule?
Answer: 10.6 µM

Question: And the TGI (DU-145 prostate)?
Answer: 22.6 µM

Question: What about the GI50 (SNB-75 CNS) of the same molecule?
Answer: 2.65 µM

Question: What about the TGI (SNB-75 CNS) of the same molecule?
Answer: 9.43 µM

Question: And the GI50 (NCI/ADR-RES ovarian)?
Answer: 2.91 µM

Question: And the TGI (NCI/ADR-RES ovarian)?
Answer: 8.82 µM

Question: What about the GI50 (PC-3 prostate) of the same molecule?
Answer: 1.85 µM

Question: What about the TGI (PC-3 prostate) of the same molecule?
Answer: 3.68 µM

Question: And the GI50 (BT-549 breast)?
Answer: 16.2 µM

Question: And the TGI (BT-549 breast)?
Answer: 30.1 µM

Question: What about the GI50 (OVCAR-3 ovarian) of the same molecule?
Answer: 1.71 µM

Question: What about the TGI (OVCAR-3 ovarian) of the same molecule?
Answer: 3.08 µM

Question: What about the GI50 (CAKI-1 renal) of the same molecule?
Answer: 1.72 µM

Question: And the TGI (CAKI-1 renal)?
Answer: 3.43 µM

Question: And the GI50 (A549 NSCLC)?
Answer: 18.6 µM

Question: What about the TGI (A549 NSCLC) of the same molecule?
Answer: 41.5 µM

Question: And the GI50 (HL-60(TB) leukemia)?
Answer: 2.68 µM

Question: What about the TGI (HL-60(TB) leukemia) of the same molecule?
Answer: 5.4 µM
